{
  "source": "patent US20100009907A1",
  "about": "“Glucagon-Like Peptides and Uses Thereof” (AMYLIN PHARMACEUTICALS, INC., priority 2006, published 2010)",
  "molecular_target": "T1, RINm5f cells expressing endogenous GLP-1, calcitonin, and GIP receptors (Rattus norvegicus, UniProt P32301)",
  "T1 construct": "RINm5f cells expressing endogenous GLP-1, calcitonin, and GIP receptors; endogenous in cells; host or cells: RINm5f cells",
  "T1 sequence (P32301 22-463)": "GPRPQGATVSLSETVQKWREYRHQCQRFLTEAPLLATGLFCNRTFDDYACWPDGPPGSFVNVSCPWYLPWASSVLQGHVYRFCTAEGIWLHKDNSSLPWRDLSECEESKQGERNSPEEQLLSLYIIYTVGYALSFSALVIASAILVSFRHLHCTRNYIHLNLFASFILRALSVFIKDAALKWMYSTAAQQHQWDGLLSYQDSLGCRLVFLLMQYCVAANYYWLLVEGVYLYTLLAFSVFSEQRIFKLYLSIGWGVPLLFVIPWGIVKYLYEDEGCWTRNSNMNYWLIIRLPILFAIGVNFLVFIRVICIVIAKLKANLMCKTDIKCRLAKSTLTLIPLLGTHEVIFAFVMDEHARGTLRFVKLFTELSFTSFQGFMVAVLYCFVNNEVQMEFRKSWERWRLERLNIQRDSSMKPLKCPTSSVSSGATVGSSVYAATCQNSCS",
  "assay": "GLP/GIP/CT cAMP (RIN) assay",
  "assay_type": "cell-based",
  "procedure": "In addition, receptor binding can be measured using cells prepared from confluent cultures of RINm5f cells expressing endogenous GLP-1, calcitonin, and GIP receptors. Cells, and peptide or buffer solution are combined in 384-well plates. After a 30-minute incubation at room temperature in air, cAMP content is measured as recommended in the Perkin-Elmer AlphaScreen kit instructions.\nCells, and peptide or buffer solutions are combined in 384-well plates and incubated at room temperature in air for 30-minutes. cAMP content can then be measured according to recommendations in the Perkin-Elmer AlphaScreen™ kit instructions using the Perkin Elmer Fusion fluorimeter and data are analyzed using XLfit software (IDBS).",
  "data": [
    {"smiles": "CC[C@H](C)[C@H](NC(=O)[C@H](CC(C)C)NC(=O)[C@H](Cc1c[nH]c2ccccc12)NC(=O)[C@H](CCC(=O)O)NC(=O)[C@@H](NC(=O)[C@H](Cc1ccccc1)NC(=O)[C@H](CCC(=O)O)NC(=O)[C@H](CCCCN)NC(=O)[C@H](C)NC(=O)[C@H](C)NC(=O)[C@H](CCCCN)NC(=O)[C@H](CCC(=O)O)NC(=O)[C@H](CCC(=O)O)NC(=O)[C@H](CC(C)C)NC(=O)[C@H](Cc1ccc(O)cc1)NC(=O)[C@H](CCC(=O)O)NC(=O)[C@@H](NC(=O)[C@@H](NC(=O)[C@H](CC(=O)O)NC(=O)[C@H](CC(N)=O)NC(=O)[C@@H](NC(=O)[C@H](Cc1ccc(O)cc1)NC(=O)[C@@H](NC(=O)[C@H](Cc1ccccc1)NC(=O)[C@H](CCC(=O)O)NC(=O)[C@H](C)NC(=O)[C@@H](N)Cc1c[nH]cn1)[C@@H](C)O)[C@@H](C)O)C(C)C)[C@@H](C)O)[C@@H](C)CC)C(=O)N[C@@H](CCCCN)C(=O)NCC(=O)NCC(=O)N1CCC[C@H]1C(=O)N[C@@H](CO)C(=O)N[C@@H](CO)C(=O)NCC(=O)N[C@@H](C)C(=O)N1CCC[C@H]1C(=O)N1CCC[C@H]1C(=O)N1CCC[C@H]1C(=O)N[C@@H](CO)C(N)=O", "note": "[compound 19]", "values": [
      {"measurement": "GLP/GIP/CT cAMP(RIN) EC50", "result": 110, "unit": "pM"}
    ]}
  ]
}
